We go through one molecule from PMC4748415, “Impact of different cell penetrating peptides on the efficacy of antisense therapeutics for targeting intracellular pathogens” (Scientific Reports, 2016).

Values after ≈ are worked out from the molar mass of the structure shown.

The subject of the test is clinical isolates of L. monocytogenes. It is filed as cell-based, Listeria monocytogenes. The note with it: 16 h. How it is done: The MICs of conjugated PNAs, free PNA, CPPs and untreated control against L. monocytogenes were determined using the broth microdilution method according to the Clinical and Laboratory Standards Institute (CLSI) guidelines with the following modifications. Briefly, low binding clear microcentrifuge tubes (USA scientific, Inc. Ocala, FL) were used in triplicates for each reaction instead of traditional 96-well plates. […] After a 16 hour incubation period (of test agent with bacteria), the number of viable bacteria was enumerated by serial dilution and counting on TSA plates. The MICs were repeated at least twice.

A word on the MIC50: it is the lowest concentration that inhibits either 50% of growth or 50% of the strains tested, depending on the study. A high value points to weaker potency. For `CC[C@H](C)[C@H](NC(=O)[C@H](CCCCN)NC(=O)[C@@H](NC(=O)[C@H](CCC(N)=O)NC(=O)[C@@H](N)CCCNC(=N)N)[C@@H](C)CC)C(=O)N[C@@H](Cc1c[nH]c2ccccc12)C(=O)N[C@@H](Cc1ccccc1)C(=O)N[C@@H](CCC(N)=O)C(=O)N[C@@H](CC(N)=O)C(=O)N[C@@H](CCCNC(=N)N)C(=O)N[C@@H](CCCNC(=N)N)C(=O)N[C@@H](CCSC)C(=O)N[C@@H](CCCCN)C(=O)N[C@@H](Cc1c[nH]c2ccccc12)C(=O)N[C@@H](CCCCN)C(=O)N[C@@H](CCCCN)C(=O)O` [ANT], the MIC50 was 64 µM (≈ 144 µg/mL).
